Protein sequences, listed by entry. Tags and fused reporters are not part of them. Residues count along the entry.
UniProt P23945, 18-695 limits assumed: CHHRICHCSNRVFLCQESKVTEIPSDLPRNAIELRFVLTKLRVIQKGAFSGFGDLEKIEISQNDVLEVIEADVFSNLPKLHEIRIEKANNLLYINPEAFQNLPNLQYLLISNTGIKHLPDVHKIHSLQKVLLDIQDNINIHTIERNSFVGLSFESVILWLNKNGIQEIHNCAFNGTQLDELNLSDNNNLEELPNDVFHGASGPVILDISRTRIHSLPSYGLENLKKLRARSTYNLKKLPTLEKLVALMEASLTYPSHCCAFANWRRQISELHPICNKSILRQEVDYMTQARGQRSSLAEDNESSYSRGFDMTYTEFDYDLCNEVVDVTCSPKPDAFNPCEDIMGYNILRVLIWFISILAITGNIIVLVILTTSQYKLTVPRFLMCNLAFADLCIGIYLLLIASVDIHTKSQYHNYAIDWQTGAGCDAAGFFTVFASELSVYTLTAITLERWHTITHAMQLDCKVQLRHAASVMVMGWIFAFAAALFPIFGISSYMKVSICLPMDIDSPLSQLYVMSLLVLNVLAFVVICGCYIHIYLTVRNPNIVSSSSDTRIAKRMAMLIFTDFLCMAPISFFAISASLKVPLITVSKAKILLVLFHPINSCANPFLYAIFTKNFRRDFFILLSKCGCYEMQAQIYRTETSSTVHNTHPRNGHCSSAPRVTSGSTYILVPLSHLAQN

In US6583179B2, “Substituted aminoalkylamide derivatives as antagonists of follicle stimulating hormone” (Ortho-McNeil Pharmaceutical, Inc., priority 1999, dated 2003):

target: human FSH receptor (Homo sapiens, UniProt P23945); experiment: hFSHR CHO cAMP assay (rhFSHR-cLUC cells, FSH-stimulated cAMP, radioimmunoassay); details: read-out: EC50 hFSHR CHO cAMP; inhibition of cAMP produced by EC70 dose of FSH (4.85 nM); maximum concentration 50 μM
Description: Minimum Essential Medium-Alpha (MEM-alpha), fetal bovine serum (FBS), penicillin, streptomycin, geneticin, trypsin-EDTA, Hanks' Balanced Salt Solution (no Calcium chloride, Magnesium chloride, Magnesium sulfate, or phenol red; Ca-Mg free HBSS) were purchased from Gibco BRL (Gaithersburg, Md.). The cells used for the FSH bioassay (rhFSHR-cLUC) were Chinese Hamster Ovary cells (K-1; ATCC) stably transformed with human FSH receptor (pSVK-FSHr) and a cAMP luciferase reporter gene (responsive CGα-180LUC). Follicle Stimulating Hormone (Metrodin; Fertinex) was purchased from Serono, Ltd. (Norwell, Mass.).
The rhFSHR-cLUC cell cultures were maintained in MEM-Alpha supplemented with 10% heat-inactivated FBS (HIFBS), 100 U/ml penicillin, 100 μg/mL streptomycin, and included 0.1 g/L geneticin for stable cell selection.
Forty-eight hours after the cells were plated in sterile 96-well culture plates (Corning, Corning, N.Y.) the spent media was removed and 50 μl assay media (modified growth media with 2% HIFBS) containing 2 mM IBMX (3-isobutyl-1-methyl-xanthine) was added to the cells. Compounds (25 μl) in the appropriate concentration were added followed 5 minutes later by an EC70 dose of FSH (25 μl; 160 ng/ml; 4.85 nM). After 10 minutes @ 22.5° C. (room temperature) the reaction was terminated by addition of 25 μL 0.5 N hydrochloric acid to each well. The amount of cAMP produced was measured by radioimmunoassay in a FlashPlate (DuPont, Boston, Mass.). To each flash plate 60 μL flash plate buffer was added followed by 40 μL acidified cell sample or cAMP standard, followed with the addition of 100 μl ^125l-cAMP trace. The FlashPlates were sealed, incubated overnight @ room temperature, and counted in a Packard TopCount (Packard Instrument Co., Meriden, Conn.). The cAMP radioimmunoassay results were calculated using DPM conversion and log-logit transformation of % binding (Excel program).
Test compounds were solubilized in 30% dimethyl sulfoxide (DMSO) at a concentration of 10 mM before diluting to appropriate concentrations in assay medium. The final DMSO concentration in the treated cells and in the control cells was 0.75%.
For individual experiments, a set of samples were tested including a vehicle control (assay buffer), a reference compound (hFSH) at a range of concentrations designed to elicit a minimal to maximal response, and several concentrations of test compounds together with an EC70 concentration of standard (hFSH challenge). Each compound was performed in duplicates for the primary evaluation and quadruplicates for the dose-ranging experiments. The cAMP radioimmunoassay raw data (pmol) were calculated to provide average pmol cAMP produced/ml and the percent inhibition was calculated as shown below.
% Inh=[1−(Avg.pmoltest compound+standard)/(Avg.pmolstandard)]×100
EC50 values were calculated from an analysis of the concentration-inhibition data using a linear analysis of the data transformed to a log-logit format.

EC50 | SMILES
4770 nM | NCc1ccc(CNC(=O)CN(CC2Cc3ccccc32)S(=O)(=O)c2ccc(-c3ccccc3Cl)cc2)cc1 (centres unmarked)
3880 nM | COc1ccccc1CCN(CC(=O)NCc1ccc(CN)cc1)S(=O)(=O)c1ccc(-c2ccc3c(c2)OCO3)s1
340 nM | C[C@H](CN(CC(=O)NCc1ccc(CN)cc1)S(=O)(=O)c1ccc(-c2ccccc2C(F)(F)F)cc1)c1ccccc1
230 nM | C[C@@H](CN(CC(=O)NCc1ccc(CN)cc1)S(=O)(=O)c1ccc(-c2ccccc2[N+](=O)[O-])cc1)c1ccccc1
11200 nM | COc1ccccc1CCN(CC(=O)N1CCNCC1)S(=O)(=O)c1ccc(-c2cccc(NC(C)=O)c2)cc1
8060 nM | COc1ccccc1CCN(CC(=O)NCc1ccc(CN)cc1)S(=O)(=O)c1cccs1
1100 nM | NCc1ccc(CNC(=O)CN(CC2(c3ccc(Cl)cc3)CC2)S(=O)(=O)c2ccc(-c3cccc(F)c3)cc2)cc1
610 nM | NCc1ccc(CNC(=O)CN(CCc2ccccc2N)S(=O)(=O)c2ccc(-c3ccccc3Cl)cc2)cc1
8430 nM | COc1ccccc1CCN(CC(=O)NCc1ccc(CN)cc1)S(=O)(=O)c1cccc(-c2ccc(Cl)cc2)c1
27800 nM | COc1ccccc1CCN(CC(=O)NCc1ccc(CN)cc1)S(=O)(=O)c1ccccc1-c1ccc(C#N)cc1
1020 nM | COc1cccc(CCN(CC(=O)NCCCCCCN)S(=O)(=O)c2ccc(-c3ccccc3Cl)cc2)c1
40 nM | COc1ccccc1C(C)CN(CC(=O)NCCCCCCN)S(=O)(=O)c1ccc(-c2ccccc2Cl)cc1 (centres unmarked)
780 nM | Cc1ccccc1-c1ccc(S(=O)(=O)N(CC(=O)N2CCC(C3CCNCC3)CC2)C[C@H](C)c2ccccc2)cc1
2220 nM | COc1ccccc1CCN(CC(=O)NCc1ccc(CN)cc1)S(=O)(=O)c1ccc(-c2ccccc2C(F)(F)F)s1
> 50000 nM | COc1ccc(C=O)cc1-c1ccc(S(=O)(=O)N(CC(=O)NCc2ccc(CN)cc2)C[C@H](C)c2ccccc2)cc1
300 nM | COc1ccccc1CN(CC(=O)NCCCCCCN)S(=O)(=O)c1ccc(-c2ccccc2Cl)cc1
7520 nM | COc1ccccc1CCN(CC(=O)NCc1ccc(CN)cc1)S(=O)(=O)c1ccc(-c2cccc(Cl)c2)s1
4320 nM | COc1ccccc1CCN(CC(=O)NCc1ccc(CN)cc1)S(=O)(=O)c1ccc(I)cc1
2690 nM | COc1ccccc1CCN(CC(=O)NCc1ccc(CN)cc1)S(=O)(=O)c1cccc(-c2ccc(C#N)cc2)c1 [265]
350 nM | Cc1ccccc1CCN(CC(=O)NCCCCCCN)S(=O)(=O)c1ccc(-c2ccccc2Cl)cc1
≥ 50000 nM | COc1ccccc1CCN(CC(=O)NCc1ccc(CN)cc1)S(=O)(=O)c1ccc(OC)c(OC)c1
2180 nM | COc1ccc(OC)c(-c2ccc(S(=O)(=O)N(CCc3ccccc3OC)CC(=O)NCc3ccc(CN)cc3)s2)c1

EC50 | SMILES
> 50000 nM | C[C@@H](CN(CC(=O)NCc1ccc(CN)cc1)S(=O)(=O)c1ccc(-c2cc3ccccc3o2)cc1)c1ccccc1
5650 nM | COc1ccccc1CCN(CC(=O)NCc1ccc(CN)cc1)S(=O)(=O)c1cccc(-c2c(C)noc2C)c1
1410 nM | COc1cccc(CN(CC(=O)NCC2CCC(CN)CC2)S(=O)(=O)c2ccc(-c3cccc(F)c3)cc2)c1 (centres unmarked)
2360 nM | Cc1ccc(-c2ccc(S(=O)(=O)N(CC(=O)NCc3ccc(CN)cc3)C[C@H](C)c3ccccc3)cc2)c(Cl)c1
350 nM | C[C@@H](CN(CC(=O)NCc1ccc(CN)cc1)S(=O)(=O)c1ccc(-c2ccc(F)cc2)cc1)c1ccccc1 [414]
8340 nM | COc1ccccc1CCN(CC(=O)N1CCNCC1)S(=O)(=O)c1ccc(-c2cccc3ccccc23)cc1
170 nM | COc1ccc(OC)c(-c2ccc(S(=O)(=O)N(CC(=O)NCc3ccc(CN)cc3)C[C@H](C)c3ccccc3)cc2)c1
13200 nM | C[C@@H](CN(CC(=O)NCc1ccc(CN)cc1)C(=O)c1ccc(-c2cccc(F)c2)cc1)c1ccccc1
120 nM | CCC(CN(CC(=O)NCc1ccc(CN)cc1)S(=O)(=O)c1ccc(-c2ccccc2Cl)cc1)c1ccccc1 (centres unmarked)
420 nM | COc1cccc(S(=O)(=O)N(CC(=O)NCc2ccc(CN)cc2)C[C@H](C)c2ccccc2)c1
110 nM | COc1cc(CCN(CC(=O)NCc2ccc(CN)cc2)S(=O)(=O)c2ccc(-c3ccccc3Cl)cc2)cc(Br)c1OC
410 nM | Cc1ccc(Cl)c(-c2ccc(S(=O)(=O)N(CC(=O)NCc3ccc(CN)cc3)C[C@H](C)c3ccccc3)cc2)c1
40600 nM | COc1ccccc1CN(CC(=O)N1CCNCC1)S(=O)(=O)c1ccc(-c2ccccc2OC)cc1
210 nM | COc1ccc(-c2ccc(S(=O)(=O)N(CC(=O)NCc3ccc(CN)cc3)C[C@H](C)c3ccccc3)cc2)cc1OC
190 nM | NCc1ccc(CNC(=O)CN(CCc2cccs2)S(=O)(=O)c2ccc(-c3ccccc3Cl)cc2)cc1
5860 nM | COc1ccccc1CCN(CC(=O)NCc1ccc(CN)cc1)S(=O)(=O)c1ccccc1-c1ccc(F)cc1
≥ 50000 nM | NCc1ccc(CNC(=O)CN(CC(c2ccccc2)c2ccccc2)S(=O)(=O)c2ccc(-c3ccccc3Cl)cc2)cc1
3460 nM | C[C@@H](CN(CC(=O)NC1CCC(CC2CCC(N)CC2)CC1)S(=O)(=O)c1ccc(-c2cccc(F)c2)cc1)c1ccccc1 (some centres unmarked)
1840 nM | C[C@H](CN(CC(=O)N1CCC(C2CCNCC2)CC1)S(=O)(=O)c1ccc(-c2cccc(F)c2)cc1)c1ccccc1
1080 nM | C[C@@H](CN(CC(=O)N1CCC(C2CCNCC2)CC1)S(=O)(=O)c1ccc(-c2cccc(F)c2)cc1)c1ccccc1
6950 nM | COc1ccccc1CCN(CC(=O)NCc1ccc(CN)cc1)S(=O)(=O)c1ccc(-c2ccc(Cl)cc2)s1
9440 nM | COc1ccccc1CCN(CC(=O)N1CCNCC1)S(=O)(=O)c1ccc(-c2ccccc2OC)cc1

EC50 | SMILES
460 nM | COc1ccc(CCN(CC(=O)NCc2ccc(CN)cc2)S(=O)(=O)c2ccc(-c3ccccc3Cl)cc2)cc1
690 nM | Cc1ccccc1-c1ccc(S(=O)(=O)N(CC(=O)NCc2ccc(CN)cc2)CC(C)c2ccc(Cl)cc2)cc1 (centres unmarked)
520 nM | C[C@@H](CN(CC(=O)NCc1ccc(CN)cc1)S(=O)(=O)c1ccc(-c2ccc(OC(F)(F)F)cc2)cc1)c1ccccc1
1070 nM | Cc1ccccc1-c1ccc(S(=O)(=O)N(CC(=O)NCC2CCCC(CN)C2)C[C@@H](C)c2ccccc2)cc1 (some centres unmarked)
24300 nM | COc1ccccc1CCN(CC(=O)NCc1ccc(CN)cc1)S(=O)(=O)c1ccc(-c2ccccn2)s1
1940 nM | NCCCCCCNC(=O)CN(CCc1ccccn1)S(=O)(=O)c1ccc(-c2ccccc2Cl)cc1
≥ 50000 nM | COc1ccccc1CN(CC(=O)N1CCNCC1)S(=O)(=O)c1ccc(-c2ccncc2)cc1
6510 nM | COc1ccccc1CCN(CC(=O)NCc1ccc(CN)cc1)S(=O)(=O)c1ccccc1-c1ccc(C)cc1
450 nM | Cc1ccccc1-c1ccc(S(=O)(=O)N(CC(=O)NCCCCCN)C[C@@H](C)c2ccccc2)cc1
32300 nM | COc1cccc(-c2ccc(S(=O)(=O)N(CC(=O)N3CCNCC3)Cc3ccccc3OC)cc2)c1
1240 nM | NCCCCCCNC(=O)CN(CCCc1ccccc1)S(=O)(=O)c1ccc(-c2ccccc2Cl)cc1
1540 nM | COc1ccccc1CCN(CC(=O)NCc1ccc(CN)cc1)S(=O)(=O)c1ccc(-c2ccco2)s1
720 nM | CN(C)c1ccccc1CCN(CC(=O)NCc1ccc(CN)cc1)S(=O)(=O)c1ccc(-c2ccccc2Cl)cc1
8990 nM | COc1ccccc1CCN(CC(=O)N1CCNCC1)S(=O)(=O)c1ccc(-c2cccc(F)c2)cc1
2580 nM | COc1ccccc1CCN(CC(=O)NCc1ccc(CN)cc1)S(=O)(=O)c1ccccc1F
3510 nM | COc1ccccc1CCN(CC(=O)NCc1ccc(CN)cc1)S(=O)(=O)c1ccc(-c2cccc(F)c2)s1
230 nM | COc1ccccc1-c1ccc(S(=O)(=O)N(CC(=O)NCc2ccc(CN)cc2)C[C@@H](C)c2ccccc2)cc1
4200 nM | C[C@@H](CN(CC(=O)NCc1ccc(CN)cc1)S(=O)(=O)c1ccc(C(F)(F)F)cc1)c1ccccc1
490 nM | COc1cccc(-c2ccc(S(=O)(=O)N(CC(=O)NCc3ccc(CN)cc3)C[C@@H](C)c3ccccc3)cc2)c1
≥ 50000 nM | COc1ccccc1CCN(CC(=O)NCc1ccc(CN)cc1)S(=O)(=O)c1ccccc1-c1cccc(C#N)c1
3760 nM | COc1ccccc1CCN(CC(=O)NCc1ccc(CN)cc1)S(=O)(=O)c1ccccc1-c1ccccc1F
